## Antibody variant affinities, Ab-14 light chain, assay B

Values reported by Li et al. 2023, doi:10.1038/s41467-023-39022-2 (FLAb copy).

Target peptide (SARS-CoV-2 spike, HR2 region): PDVDLGDISGINAS

Each scFv is VH, a (GGGGS)3 linker, VL, as in the parent Ab-14, and differs from it in the CDRs of the light chain only.
VH: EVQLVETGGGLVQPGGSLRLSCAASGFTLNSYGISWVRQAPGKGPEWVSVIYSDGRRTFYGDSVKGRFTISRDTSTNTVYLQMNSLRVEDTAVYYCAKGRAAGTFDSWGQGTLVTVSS
VL: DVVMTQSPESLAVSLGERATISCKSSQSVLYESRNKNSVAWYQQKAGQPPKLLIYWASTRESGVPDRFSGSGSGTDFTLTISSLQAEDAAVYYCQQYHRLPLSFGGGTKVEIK

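Phage display of a naive human antibody library on the peptide gave the parent. These sequences belong to a second round, designed from the earlier measurements on random variants of the parent. Their group label is 14L_En_Gibbs (En: ensemble of fine-tuned language models; Gibbs: Gibbs sampling). The assay is AlphaSeq: two haploid yeast populations carry antibody and antigen on their surface. After mating in shaken culture at 30 °C for 16 h, diploids were selected and their barcode pairs sequenced. The ratio of observed to expected reads was calibrated, replicate by replicate, on BCL2-family standards whose Kd was known from biolayer interferometry. Each pool was mated in six replicate cultures.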

The parent's light chain CDRs are KSSQSVLYESRNKNSVA, WASTRES, QQYHRLPLS; each variant's own CDRs replace them letter for letter. Scale: log10 of Kd in nM, estimated from mating counts; low values are strong binders. Averages over replicates are reported, and they cover detected replicates only. "nd" marks a missing value. The strain was present, yet no cells mated with the target were sequenced in that replicate, which points to weak or no binding. The authors averaged sequences with at least three values out of six and counted those with two or fewer as poor binders. Nonspecific signal, from three strains lacking the peptide, appeared in 4% of pairings of all light chain designs, centred on 2.64 (5% of these signals below 1.59); values are not corrected for it. Also given: how often the same scFv was detected with the empty control strains, with their mean in brackets. Of ten entries with the parent sequence, four were seen in most replicates (averages 0.34 to 2.37), three in one and three in none, so single entries are noisy. The range of this assay differs from that of the first round, and the authors advise against merging the two.

| CDR-L1 | CDR-L2 | CDR-L3 | log10 Kd, replicates | mean, log10 nM | empty controls |
|---|---|---|---|---|---|
| HMMMYSEMQNNIQNNIA | DAMTRVT | QQYQHLPLS | 0.47 / 0.40 / 0.18 / 0.05 / 0.24 / 0.61 | 0.33 | 0 of 18 |
| VFSGQWDLNTTQNSSVA | NVSETML | QQYNRLPLM | nd / 2.79 / 1.19 / 3.20 / 1.82 / 1.67 | 2.14 | 2 of 18 (1.43) |
| RITDHFLGLGNGRQAIA | HATVAVE | QQYHQLPLA | 0.91 / 0.70 / 0.75 / 0.58 / 0.64 / 0.81 | 0.73 | 4 of 18 (2.76) |
| SMEWEEWNGQSKKHNIA | ADTKVLE | QQYFRLPFT | 0.49 / 0.99 / 0.62 / 0.60 / 0.44 / 0.61 | 0.62 | 0 of 18 |
| QMYPFGLAKGEGSNNVA | HVSTRAL | QQYFRLPLV | 0.39 / 0.29 / 0.34 / 0.19 / 0.09 / 0.41 | 0.29 | 2 of 18 (3.32) |
| MVNMHDEGFQGHKDNIA | NAATKEG | QHYARLPLV | 1.17 / 0.91 / 1.19 / 0.96 / 1.08 / 1.24 | 1.09 | 4 of 18 (3.22) |
| KLQGFSNNMNDIWNSIA | DESMLHT | QHYDRLPLV | 1.63 / 2.04 / 1.34 / 1.67 / 1.31 / 1.46 | 1.57 | 2 of 18 (2.95) |
| KIDENWNHGANRDNNIA | EARTVGA | QQYFRLPII | 0.81 / 0.54 / 1.04 / 1.43 / 0.92 / 1.25 | 1.00 | 0 of 18 |
| SIEWEEWNGQSVGHNIA | ADTQVLE | QQYFRLPFT | 0.81 / 1.35 / 1.77 / 0.96 / 1.62 / 1.24 | 1.29 | 1 of 18 (4.22) |
| KMSVSLQQGIYRADSIA | STDIRVL | QQYYHLPLA | 1.36 / 0.65 / 0.92 / 0.81 / 1.48 / 1.19 | 1.07 | 0 of 18 |
| NISGMVEEIETRQKNIA | EVEFRCM | QQYSRLPLS | nd / nd / 2.03 / nd / nd / nd | 2.03 | 0 of 18 |
| KIYELGKGSIKINNNIA | QTDIREL | QSYNRLPLS | 0.61 / -0.16 / 0.36 / 0.06 / -0.34 / 0.34 | 0.14 | 0 of 18 |
| KLMVFPTNAGMTQANIA | DASHSTD | QQYGRLPLM | nd / 2.26 / 2.00 / 2.16 / 3.31 / 3.97 | 2.74 | 0 of 18 |
| QMTENDHGHQAGVGSIA | DATETME | QQYMHLPLS | 0.15 / 0.18 / 0.02 / 0.11 / 0.14 / 0.22 | 0.14 | 1 of 18 (1.95) |
| KLTKSQYNWTSHYQAVA | EQNMRAT | QSYYRLPFS | 1.96 / nd / 1.34 / 1.77 / nd / 2.78 | 1.96 | 1 of 18 (3.45) |
| KLSWTCTGDLNQMHSVA | ESEVAVD | QQYAHLPLT | 1.28 / 2.41 / 2.22 / 1.79 / 2.04 / 2.55 | 2.05 | 1 of 18 (2.02) |
| KLNLEEEWGTGQWQNIA | EREIAWQ | QQYQSLPLS | nd / nd / 0.11 / 0.31 / 0.18 / 1.04 | 0.41 | 0 of 18 |
| KVHAYTQGVEQDMQNVA | ETSYASR | QQYFRLPLS | 1.83 / 1.45 / 3.58 / 3.12 / 2.98 / nd | 2.59 | 0 of 18 |
| MMTWGDDMTTGHQNAIA | HAHERAT | QQYALLPLS | 0.69 / 0.72 / 0.57 / 0.62 / 0.70 / 0.62 | 0.65 | 2 of 18 (1.85) |
| NLVGRVPDNYQERNAIA | DMHCRAG | QQYERLPLS | 1.49 / 0.77 / 0.31 / 0.47 / 0.62 / 0.80 | 0.74 | 0 of 18 |
| SMSNAQFNPDNWKNSIA | DAEHVAY | QQYSRLPLT | -0.19 / 0.01 / -0.20 / -0.45 / -0.42 / 0.06 | -0.20 | 0 of 18 |
| QLDTQLQYMDANKQSVA | EMTEVTT | QQYHRLPLE | 2.04 / 1.41 / nd / nd / 1.56 / nd | 1.67 | 1 of 18 (1.85) |
| HLSLRLSYGKMLQNAVA | GVQARMT | QQYARLPLL | nd / nd / nd / 1.07 / 1.29 / 3.00 | 1.79 | 0 of 18 |
| HVSQLLTDEMYREYNVA | ETSHVEE | QQYERLPLI | 2.65 / 2.02 / 1.85 / 1.47 / 2.37 / 1.75 | 2.02 | 1 of 18 (2.64) |
| KLSTGTYGLTGHTSNVA | HDEMRWE | QQYHKLPLI | 1.66 / 1.84 / 1.66 / 3.01 / 1.76 / 2.43 | 2.06 | 2 of 18 (2.10) |
| QLFSRWGQLTEIRQAVA | DATEVAD | QQYMHLPLT | 0.70 / 1.51 / 1.05 / 0.59 / 1.18 / 1.15 | 1.03 | 1 of 18 (2.16) |
| KLWEDFYHGQVELSAIA | DGEHLNM | QQYSHLPLS | 1.29 / 0.77 / 0.96 / 0.93 / 1.07 / 0.96 | 1.00 | 2 of 18 (2.15) |
| HLYTGNYTQKNRTNAIA | DARLRVQ | QQYSRLPIM | nd / nd / nd / 1.46 / nd / 2.70 | 2.08 | 0 of 18 |
| SFSHESEGSKNEEASIA | STETLMS | QDYARLPLA | 2.04 / nd / 2.36 / 2.42 / nd / 2.90 | 2.43 | 0 of 18 |
| HLHTIMYTENIGENSIA | DANLHVD | QQYFRLPIS | 1.05 / 0.75 / 1.63 / 0.90 / 1.27 / 0.55 | 1.02 | 1 of 18 (1.96) |
| HFDDLMVEWDANQSQVA | DHNEAQH | QQYDRLPLS | 2.18 / nd / nd / nd / 2.59 / nd | 2.38 | 0 of 18 |
| RMDMALTHAHNNVNNIA | EGAMVAD | QQYDRLPLW | 1.05 / 0.72 / 0.47 / 0.79 / 1.44 / nd | 0.89 | 1 of 18 (0.89) |
| HLNKQAWDFNQTWNAVA | AHSMRAT | QQYYRLPLT | 2.12 / 2.44 / nd / nd / 1.60 / 2.23 | 2.10 | 0 of 18 |
| KIEWYSQDNRLTISAIA | EASTIYQ | QQYGHLPLS | nd / nd / nd / nd / nd / nd | nd | 0 of 18 |
| QFSNVNMQGLAQWANVA | EASYAFE | QQYARLPLQ | nd / 1.29 / 1.10 / 0.87 / 2.12 / 2.01 | 1.48 | 0 of 18 |
| TLGNQPTEMRDNKHAVA | DDNQRDR | QSYMRLPLS | 1.35 / nd / 1.79 / 1.32 / 1.00 / nd | 1.36 | 0 of 18 |
| RLAMGHDNYMHEGNHVA | EVSCRAT | QQYAHLPLV | 1.94 / 1.53 / 2.66 / 1.31 / 3.07 / 1.50 | 2.00 | 3 of 18 (2.82) |
| QYSMNLEIYDQEQGNVA | HGEMRTE | QQYHKLPLS | 0.92 / 0.96 / 0.67 / 0.81 / 0.98 / 1.02 | 0.89 | 0 of 18 |
| KVSQGIFDGERNSHQIA | EVTELCT | QQYSRLPLE | 2.09 / 1.95 / 1.96 / 2.04 / 2.20 / 2.13 | 2.06 | 2 of 18 (3.69) |
| QLSVFELQGMGWAQSIA | QADHRTE | QQFARLPLV | 1.83 / 2.00 / 2.16 / 1.04 / 1.14 / 2.44 | 1.77 | 0 of 18 |
| QLEFRDVQGTANWHAIA | EGSQLGQ | QQYFHLPLG | 1.20 / 0.93 / 0.45 / 0.84 / 1.11 / 1.10 | 0.94 | 0 of 18 |
| NLGFVDDNDNQMMMSIA | DENTVGE | QQYNRLPLA | nd / nd / nd / 2.46 / 2.26 / nd | 2.36 | 0 of 18 |
| MLKMENEEFNFDKNSVA | EAVEKES | QQYHRLPII | nd / 1.17 / 1.18 / 1.92 / 1.69 / 3.37 | 1.86 | 0 of 18 |
| YLVQKADYMDSERNNIA | NGRLRNE | QQYFHLPLT | 0.83 / 0.99 / 1.10 / 1.81 / 0.96 / 1.03 | 1.12 | 0 of 18 |
| KISTQIPEFEMWDNAIA | GATLRET | QHYARLPLS | 1.04 / 1.21 / 1.15 / 1.70 / 1.36 / 1.99 | 1.41 | 0 of 18 |
| NMGGTKEMQSNNINNIA | EMNERFA | QQYFQLPLS | 1.00 / 0.92 / 0.67 / 0.71 / 0.68 / 0.85 | 0.80 | 0 of 18 |
| ALHAQNLQNMDNLNSIA | EQNQTQE | QQYFRLPFA | 1.91 / 2.12 / 1.86 / 1.48 / 1.44 / 3.25 | 2.01 | 0 of 18 |
| KFDLLMNDEKNANKNVA | GNVHHMA | QQYERLPLS | 0.95 / 0.95 / 0.95 / 0.70 / 0.75 / 0.99 | 0.88 | 0 of 18 |
| KLTEQLYNGERRPSSIA | AGVIGSD | QQYHQLPLI | 1.63 / 2.03 / 1.36 / 1.05 / 1.95 / 1.62 | 1.61 | 3 of 18 (2.11) |
| HFAWPWQSGYESKQNVA | NASTVMT | QHYNRLPLS | 0.66 / 0.59 / 0.75 / 0.72 / 0.61 / 0.50 | 0.64 | 1 of 18 (2.43) |
| NLKENNVDNQTKYSNIA | HADQREK | QQYYRLPLQ | 0.90 / 0.32 / 0.04 / 0.55 / 0.97 / 0.88 | 0.61 | 0 of 18 |

The last 8 entries again:

{"CDR-L1": "YLVQKADYMDSERNNIA", "CDR-L2": "NGRLRNE", "CDR-L3": "QQYFHLPLT", "log10 Kd, replicates": "0.83 / 0.99 / 1.10 / 1.81 / 0.96 / 1.03", "mean, log10 nM": "1.12", "empty controls": "0 of 18"}
{"CDR-L1": "KISTQIPEFEMWDNAIA", "CDR-L2": "GATLRET", "CDR-L3": "QHYARLPLS", "log10 Kd, replicates": "1.04 / 1.21 / 1.15 / 1.70 / 1.36 / 1.99", "mean, log10 nM": "1.41", "empty controls": "0 of 18"}
{"CDR-L1": "NMGGTKEMQSNNINNIA", "CDR-L2": "EMNERFA", "CDR-L3": "QQYFQLPLS", "log10 Kd, replicates": "1.00 / 0.92 / 0.67 / 0.71 / 0.68 / 0.85", "mean, log10 nM": "0.80", "empty controls": "0 of 18"}
{"CDR-L1": "ALHAQNLQNMDNLNSIA", "CDR-L2": "EQNQTQE", "CDR-L3": "QQYFRLPFA", "log10 Kd, replicates": "1.91 / 2.12 / 1.86 / 1.48 / 1.44 / 3.25", "mean, log10 nM": "2.01", "empty controls": "0 of 18"}
{"CDR-L1": "KFDLLMNDEKNANKNVA", "CDR-L2": "GNVHHMA", "CDR-L3": "QQYERLPLS", "log10 Kd, replicates": "0.95 / 0.95 / 0.95 / 0.70 / 0.75 / 0.99", "mean, log10 nM": "0.88", "empty controls": "0 of 18"}
{"CDR-L1": "KLTEQLYNGERRPSSIA", "CDR-L2": "AGVIGSD", "CDR-L3": "QQYHQLPLI", "log10 Kd, replicates": "1.63 / 2.03 / 1.36 / 1.05 / 1.95 / 1.62", "mean, log10 nM": "1.61", "empty controls": "3 of 18 (2.11)"}
{"CDR-L1": "HFAWPWQSGYESKQNVA", "CDR-L2": "NASTVMT", "CDR-L3": "QHYNRLPLS", "log10 Kd, replicates": "0.66 / 0.59 / 0.75 / 0.72 / 0.61 / 0.50", "mean, log10 nM": "0.64", "empty controls": "1 of 18 (2.43)"}
{"CDR-L1": "NLKENNVDNQTKYSNIA", "CDR-L2": "HADQREK", "CDR-L3": "QQYYRLPLQ", "log10 Kd, replicates": "0.90 / 0.32 / 0.04 / 0.55 / 0.97 / 0.88", "mean, log10 nM": "0.61", "empty controls": "0 of 18"}